Literature values, collected in PMC5328659 (Journal of clinical toxicology, 2016).

Conditions: following 2.85 mg/kg DZP administration; ref not given; cited from earlier work

Which Brain disappearance half-life does the source give for `O=C1CN=C(c2ccccc2)c2cc(Cl)ccc2N1` [desmethyl DZP] here?
The Brain disappearance half-life was “approximately 3 h”.
